Apparent affinities of Ab-14 variants for a coronavirus HR2 peptide

From the AlphaSeq antibody data of Li et al. 2023 (doi:10.1038/s41467-023-39022-2), copy in the FLAb collection.

The target is the same throughout: PDVDLGDISGINAS, from the HR2 region of SARS-CoV-2 spike.

Each scFv is VH, a 15-residue (Gly4Ser)3 linker, VL, as in the parent Ab-14, and differs from it in the CDRs of the light chain only.
VH: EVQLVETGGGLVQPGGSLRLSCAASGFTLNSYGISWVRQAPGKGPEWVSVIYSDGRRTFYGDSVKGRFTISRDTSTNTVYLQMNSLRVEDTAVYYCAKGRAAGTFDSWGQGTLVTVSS
VL: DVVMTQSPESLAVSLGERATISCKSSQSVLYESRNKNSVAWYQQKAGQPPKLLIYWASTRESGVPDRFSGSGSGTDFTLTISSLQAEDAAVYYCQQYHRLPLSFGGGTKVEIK

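This is the validation round: designs drawn from the data on random variants, tested in the same kind of assay. Several design methods are mixed in this list. The assay is AlphaSeq: two haploid yeast populations carry antibody and antigen on their surface. Binding brings cells together so that they mate, and sequencing counts the barcode pairs among the diploids. A regression on co-assayed BCL2-family reference pairs converts the normalised counts of each replicate to an apparent Kd. Each pool was mated in six replicate cultures.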

The parent's light chain CDRs are KSSQSVLYESRNKNSVA, WASTRES, QQYHRLPLS; each variant's own CDRs replace them letter for letter. Affinities are written as log10 Kd with Kd in nM; a lower number is a better binder. Averages over replicates are reported, and they cover detected replicates only. "n.d." marks a missing value. The strain was present, yet no cells mated with the target were sequenced in that replicate, which points to weak or no binding.

| log10 Kd, replicates | mean log10 Kd (nM) | empty controls | CDR-L1 | CDR-L2 | CDR-L3 |
|---|---|---|---|---|---|
| n.d. / 2.44 / n.d. / n.d. / n.d. / n.d. | 2.44 | 1/18 (1.89) | KSSQSVLYESENKNSVA | WASTRES | QQYHRLPWA |
| 0.91 / 1.39 / 0.49 / 0.89 / 0.79 / 1.20 | 0.94 | 0/18 | SMQVYTENFMERGQNIA | DVSATTV | QQYHRLPLA |
| 0.16 / 0.24 / 0.04 / -0.04 / 0.30 / 0.29 | 0.17 | 2/18 (2.51) | KLQQADLYESRNKNSVA | QASTRSD | QCYHRLPLS |
| 0.50 / 0.46 / 0.35 / 0.20 / 0.42 / 0.62 | 0.42 | 0/18 | KSSGSQQYEDRNKNSVA | HASQRES | QQYHRLPLS |
| n.d. / 2.06 / 2.07 / 1.97 / 3.16 / 2.52 | 2.36 | 0/18 | KIMQTLNYSQFNVSNVA | GQETRER | QSYHRLPLS |
| 1.59 / 1.39 / 1.63 / 0.89 / 1.78 / 1.61 | 1.48 | 0/18 | KLSSSHLYGQRMKNSVA | QASQREM | QQYHRLPLS |
| 1.24 / 1.07 / 1.04 / 0.92 / 0.95 / 0.77 | 1.00 | 3/18 (2.77) | KLYNATAMTSSMRNNVA | DLNERER | QQYFRLPLS |
| 1.30 / 0.95 / 0.54 / 0.27 / 0.68 / 0.90 | 0.77 | 1/18 (2.87) | KSSQSVLYESRNKNSVA | SASTREM | QQYHRLPLS |
| 1.54 / 1.60 / 1.35 / 1.50 / 1.51 / 1.69 | 1.53 | 2/18 (2.92) | KCSQALGYESRNKNSVA | WASTRER | QQYHRLPLS |
| 0.19 / -0.20 / -0.27 / -0.35 / -0.30 / -0.11 | -0.17 | 0/18 | HISDLIMVASRNKHSVA | DESTRPD | QQYHRLPLS |
| 2.43 / 1.78 / 1.36 / 1.46 / 1.85 / 1.73 | 1.77 | 2/18 (2.43) | KISQMYRYEQQNSSSIA | EASTRLN | QSYHRLPLS |
| -0.52 / -0.56 / -0.92 / -0.88 / -0.79 / -0.82 | -0.75 | 0/18 | KMSQSWLYESRNKNSVA | GASTRES | QQYHRLPLS |
| 0.45 / 0.50 / 0.41 / 0.50 / 0.48 / 0.65 | 0.50 | 2/18 (2.55) | KSSQSVLNESSNKNSVA | WASEREE | QQYHRHPLS |
| n.d. / n.d. / n.d. / n.d. / n.d. / n.d. | n.d. | 2/18 (2.17) | KCSQSVLYESRNGNSVA | WASTRES | QQYHRLPLS |
| 1.62 / 1.55 / 1.21 / 1.43 / 1.35 / 1.65 | 1.47 | 0/18 | KSSTSGLYESAMKNSVA | EASTRES | QQYHRLPLS |
| 0.62 / 0.27 / 0.21 / 0.25 / 0.09 / 0.39 | 0.31 | 0/18 | KLSQSVLYESRNKNSVA | SASTLFS | QQYHRLPLS |
| 0.66 / 0.73 / 0.73 / 1.06 / 0.88 / 0.72 | 0.80 | 1/18 (4.09) | HSSPSVLYESRNGNSVA | NASTREV | QQYHRLPLS |
| 1.88 / n.d. / 2.58 / 3.10 / 2.04 / 2.04 | 2.33 | 0/18 | KSSQSVVFESMNSNSVA | DASTRES | QQYHILPLS |
| 0.69 / 0.84 / 0.40 / 0.34 / 0.55 / 0.34 | 0.52 | 0/18 | KLEQSVGYESRNKNSVA | NASQRES | QQYHRLPLS |
| 0.33 / 0.54 / n.d. / 0.56 / n.d. / 1.11 | 0.64 | 0/18 | KSFISYLEESRNKNSVA | EASTRES | QQYHRLPLS |
| 0.50 / -0.20 / -0.18 / -0.60 / -0.47 / 0.48 | -0.08 | 0/18 | TITTSMRYESSLKNAIA | NAQTRES | QQYHRLPIS |
| n.d. / n.d. / n.d. / n.d. / n.d. / 3.32 | 3.32 | 0/18 | KSSQSVLYESRNKNSVA | WASTRES | QQYHRLPVS |
| 2.02 / n.d. / 1.43 / 2.54 / 2.90 / 3.59 | 2.50 | 1/18 (2.20) | KLSSHYFESYGERQAVA | ENEATMN | QQYSLLPLS |
| 0.22 / 0.34 / 0.01 / 0.03 / -0.02 / 0.44 | 0.17 | 2/18 (3.09) | NLGQKMALITGQRQQIA | DSTVRED | QQYSRLPLT |
| 3.22 / 2.08 / 1.25 / 1.17 / 1.80 / 1.91 | 1.90 | 0/18 | KISNMSTIESITHNSVA | QTSTREK | QQYDRLPLS |
| -0.24 / -0.51 / -0.38 / -0.41 / -0.38 / -0.41 | -0.39 | 0/18 | KVSQSDLYESRNKNSVA | EASTRES | QQYHRLPLS |
| 1.77 / 1.82 / 2.58 / 2.86 / 1.91 / 3.47 | 2.40 | 2/18 (2.78) | HITDLHYFGNEGEWNIA | DDNISVM | QQYFRLPLS |
| n.d. / n.d. / n.d. / n.d. / n.d. / n.d. | n.d. | 0/18 | TLSGHQYNYSQKKNSIA | EDNNIRL | QQYHRLPLM |
| 1.87 / 2.52 / 2.25 / 3.43 / 2.34 / 3.08 | 2.58 | 1/18 (3.82) | NVHALMNHSSDFMQSIA | DEECRDA | QQYERLPLS |
| 1.84 / 1.95 / 1.09 / 1.29 / 1.75 / 1.35 | 1.54 | 3/18 (2.79) | HISQEVGMTSRNKNSVA | ENSTRED | QQYDRLPLS |
| 0.22 / 0.03 / -0.10 / 0.26 / -0.08 / 0.49 | 0.14 | 0/18 | KLSQSELYESRNKNSVA | SASTRCS | QQYHRLPLS |
| 0.22 / 0.21 / -0.05 / 0.23 / -0.05 / 0.12 | 0.11 | 0/18 | KFSPSVLYESRVKNSVA | NASTRES | QQYHRLPLS |
| 1.12 / 1.03 / 1.13 / 1.50 / 1.15 / 1.27 | 1.20 | 0/18 | RLTNEFEKVSAHKNSIA | HTDQRCM | QQYFTLPLH |
| 0.48 / 0.64 / 0.46 / 0.50 / 0.68 / 0.50 | 0.54 | 2/18 (2.40) | KSSQDVLYESRNKNSVA | SASTRES | QQYHRLPLS |
| n.d. / 3.45 / n.d. / n.d. / 4.24 / 2.45 | 3.38 | 0/18 | KSSDSVLYEHRNKNSVA | WASTRES | QQYHRLPLS |
| 2.37 / 2.77 / n.d. / 3.53 / n.d. / n.d. | 2.89 | 2/18 (2.69) | KSSQSVLYESGNKNSVA | KASTRES | QQYHRTPLE |
| 2.38 / 3.29 / 3.19 / 3.34 / n.d. / n.d. | 3.05 | 0/18 | TIGGTLMYGMRNRSNVA | EVSERLN | QQYDRLPLH |
| n.d. / n.d. / n.d. / 1.80 / n.d. / 2.21 | 2.00 | 2/18 (1.89) | TISGSANYESTNKNSVA | ELTTRGS | QQYERLPLS |
| 0.68 / 1.36 / 0.09 / 1.49 / 0.87 / 0.59 | 0.85 | 0/18 | KLYSVTGTEKVNGNNVA | EMETREN | QQYNRLPLS |
| 0.53 / 0.60 / 0.92 / 0.83 / 0.68 / 0.91 | 0.74 | 1/18 (3.19) | KIFYRQEEDLRHESSIA | NGMARVK | QQYYMLPLS |
| 1.65 / 0.69 / n.d. / 1.27 / n.d. / 1.29 | 1.23 | 0/18 | KSQQSVLYESFNKNSVA | WASTRES | QQYHRLPLS |
| 1.03 / 0.73 / 0.92 / 0.67 / 0.79 / 0.83 | 0.83 | 0/18 | KSSPSVLYESRNKNSVA | AASTRES | QQYHRLPLG |
| 0.93 / 1.13 / 0.67 / 1.15 / 1.17 / 1.14 | 1.03 | 0/18 | KHSQSVLYESRNKNSVA | GASTRES | QQYHRLPLS |
| -0.11 / 0.06 / 0.02 / -0.01 / 0.16 / -0.06 | 0.01 | 0/18 | KLSQSVLYESRNKNSVA | EASTRES | QDYHRLPLM |
| 0.99 / 1.13 / 0.00 / 0.78 / 0.87 / 0.55 | 0.72 | 0/18 | KSQQGVLYESRNKNSVA | GASQRWS | QQYHRLPLS |
| 0.81 / 1.24 / 1.78 / 1.02 / 0.96 / 0.85 | 1.11 | 0/18 | KPSQGVLYESRNKNSVA | RASTRES | QQYHRLPLS |
| n.d. / n.d. / n.d. / n.d. / n.d. / n.d. | n.d. | 0/18 | KSSQSFLYESRNKNSVA | HLSTSES | QQYHRLTLS |

Repeated from above, the 3 best binders with a signal in all replicates:

| CDR-L1 | CDR-L2 | CDR-L3 | log10 Kd, replicates | mean log10 Kd (nM) | empty controls |
|---|---|---|---|---|---|
| KMSQSWLYESRNKNSVA | GASTRES | QQYHRLPLS | -0.52 / -0.56 / -0.92 / -0.88 / -0.79 / -0.82 | -0.75 | 0/18 |
| KVSQSDLYESRNKNSVA | EASTRES | QQYHRLPLS | -0.24 / -0.51 / -0.38 / -0.41 / -0.38 / -0.41 | -0.39 | 0/18 |
| HISDLIMVASRNKHSVA | DESTRPD | QQYHRLPLS | 0.19 / -0.20 / -0.27 / -0.35 / -0.30 / -0.11 | -0.17 | 0/18 |

Values of this round are not directly comparable with the first-round values of the same sequences. Background: pairings of all light chain designs with three empty control strains gave a value in 4% of cases (median 2.64, 5th percentile 1.59). Values in that range, when seen in few replicates, are hard to tell from nonspecific mating. For each scFv, signals with the empty controls are counted beside the result, with their mean in brackets. The authors averaged sequences with at least three values out of six and counted those with two or fewer as poor binders.